Biological target: hERG potassium channel (Homo sapiens, UniProt Q12809)
Experiment: in vitro

Protein sequences, listed by entry. Tags and fused reporters are not part of them. Lines headed by an entry give the natural chain unless they say otherwise; changes in a name come on top.
UniProt Q12809: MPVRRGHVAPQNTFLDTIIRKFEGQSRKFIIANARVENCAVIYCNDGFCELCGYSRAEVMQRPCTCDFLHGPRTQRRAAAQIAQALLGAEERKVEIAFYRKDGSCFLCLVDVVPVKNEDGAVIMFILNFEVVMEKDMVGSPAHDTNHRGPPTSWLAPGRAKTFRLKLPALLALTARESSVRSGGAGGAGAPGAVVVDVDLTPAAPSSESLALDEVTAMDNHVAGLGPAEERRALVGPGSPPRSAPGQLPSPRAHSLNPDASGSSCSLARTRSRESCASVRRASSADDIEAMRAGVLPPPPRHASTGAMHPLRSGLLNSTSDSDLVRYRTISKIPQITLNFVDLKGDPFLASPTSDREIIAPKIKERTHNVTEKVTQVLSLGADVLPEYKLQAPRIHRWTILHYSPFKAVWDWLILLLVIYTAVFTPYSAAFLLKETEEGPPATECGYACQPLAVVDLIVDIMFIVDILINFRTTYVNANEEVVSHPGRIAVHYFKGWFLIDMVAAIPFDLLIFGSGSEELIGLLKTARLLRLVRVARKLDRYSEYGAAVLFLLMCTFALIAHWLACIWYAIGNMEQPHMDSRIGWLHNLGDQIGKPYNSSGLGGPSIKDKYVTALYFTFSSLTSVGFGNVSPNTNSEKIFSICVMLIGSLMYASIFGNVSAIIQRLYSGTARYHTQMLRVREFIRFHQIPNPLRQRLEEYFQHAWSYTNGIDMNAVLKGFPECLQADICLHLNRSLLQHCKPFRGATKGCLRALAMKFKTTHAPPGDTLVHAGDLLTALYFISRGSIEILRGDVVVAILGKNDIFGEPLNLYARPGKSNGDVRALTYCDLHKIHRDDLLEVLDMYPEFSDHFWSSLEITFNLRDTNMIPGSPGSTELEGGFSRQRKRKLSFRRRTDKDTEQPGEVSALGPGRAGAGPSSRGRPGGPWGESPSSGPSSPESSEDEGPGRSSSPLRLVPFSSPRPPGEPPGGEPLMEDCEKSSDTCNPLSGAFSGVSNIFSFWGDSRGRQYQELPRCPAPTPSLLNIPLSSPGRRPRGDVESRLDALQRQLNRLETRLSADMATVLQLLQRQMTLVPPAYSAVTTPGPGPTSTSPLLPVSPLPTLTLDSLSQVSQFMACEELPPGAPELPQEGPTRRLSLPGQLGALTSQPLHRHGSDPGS

## COc1cc(N)c(Cl)cc1C(=O)NC1CCN(CCCOc2ccc(F)cc2)CC1OC (stereo not shown) [Cisapride, reference compound]
  inhibition at 5 min, 1 µM: 99%

Source: patent US20200147243A1, “LIGAND COMPOUND OF ALPHA7 NICOTINIC ACETYLCHOLINE RECEPTOR AND APPLICATION THEREOF” (BEIJING NORMAL UNIVERSITY, priority 2017, published 2020)
